# Measured affinities in a library of Ab-95 light chain variants

Source: Engelhart et al. 2022 (doi:10.1038/s41597-022-01779-4), MIT Lincoln Laboratory and A-Alpha Bio; data file from the FLAb repository.

Antigen: PDVDLGDISGINAS, a 14-residue peptide of the SARS-CoV-2 spike HR2 region.

Each scFv is VH, a (GGGGS)3 linker, VL, as in the parent Ab-95, and differs from it in the CDRs of the light chain only.
VH: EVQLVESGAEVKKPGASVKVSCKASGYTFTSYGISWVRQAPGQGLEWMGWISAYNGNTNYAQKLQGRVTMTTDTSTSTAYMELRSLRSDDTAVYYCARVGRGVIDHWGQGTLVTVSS
VL: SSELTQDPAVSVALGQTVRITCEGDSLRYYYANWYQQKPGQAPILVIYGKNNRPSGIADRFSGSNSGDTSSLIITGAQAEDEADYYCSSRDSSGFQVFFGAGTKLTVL

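The parent was found by panning a naive human phage display library on the peptide. AAYL52 was designed without a model: most single CDR substitutions and a random sample of double and triple ones. Affinity was read by AlphaSeq, a pooled yeast mating assay with surface-displayed partners. Mating (16 h, 30 °C) was followed by selection of diploids and sequencing of their barcodes. Read counts were normalised to the haploid input and turned into Kd by a linear fit to BCL2-family pairs of known affinity, for each replicate. Each pool was mated in three replicate cultures.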

Each variant is given by its three light chain CDRs, as the data file delimits them; those of the parent are EGDSLRYYYAN, GKNNRPS, SSRDSSGFQVF.
This list gathers variants with a substitution at S26 (VL, numbered from residue 1).
Numbers give log10(Kd / nM), so 0 is 1 nM and 3 is 1 µM. Smaller is tighter.
The mean shown is taken over the replicates in which the pair was detected.
Where no diploid with the target was found in any replicate, the entry reads "nd": below detection, most likely a poor binder, though not proof of it.
Background: pairings of library AAYL52 with three empty control strains gave a value in 28% of cases (median 3.91, 5th percentile 2.90). Values in that range, when seen in few replicates, are hard to tell from nonspecific mating. The control count says in how many pairings with the empty strains this scFv gave a signal.

The variant EGDLLRYYYAN / GKNNRPS / SSRDSSGFQDF showed 3.27 (2 of 3 replicates; controls 5 of 9).
The variant EGDTLRYYEAN / GKNNLPS / SSRDSSGFQVF showed 2.92 (3 of 3 replicates; controls 4 of 9).
The variant EGDLLRYHYAN / GKNNRPS / ISRDSSGFQVF showed 3.79 (1 of 3 replicates; controls 2 of 9).
The variant EGHMLRYYEAN / GKNNRPS / SSRDSSGFQVF showed 2.93 (3 of 3 replicates; controls 3 of 9).
The variant EGDDLAYSYAN / GKNNRPS / SSRDSSGFQVF showed 1.02 (3 of 3 replicates; controls 1 of 9).
The variant EGDDLRYYYAN / FKNNRPS / SSRDSSGFQVF showed 4.29 (3 of 3 replicates; controls 6 of 9).
The variant EGDPGRYYYAN / GKNNRPS / SSRDSSGFHVF showed 4.01 (3 of 3 replicates; controls 5 of 9).
The variant EGDHLRYYYAT / GKNNRPS / SSRDSMGFQVF showed 3.58 (1 of 3 replicates; controls 1 of 9).
The variant EGDGLRYYYAN / GKNNRPS / SSRDSSGFQFF showed nd (0 of 3 replicates; controls 2 of 9).
The variant EGDELRYYYTN / GKVNRPS / SSRDSSGFQVF showed 4.22 (1 of 3 replicates; controls 1 of 9).
The variant EGDCLKYYYAN / GKNNRPS / SSRDSSGVQVF showed 3.60 (2 of 3 replicates; controls 1 of 9).
The variant EGMYLRYYYAN / GKNNRPS / SSRDLSGFQVF showed 4.59 (1 of 3 replicates; controls 2 of 9).
The variant EGDTLRYYYAN / GKNNRGS / SSRLSSGFQVF showed nd (0 of 3 replicates; controls 1 of 9).
The variant EGDILRYYYAW / GLNNRPS / SSRDSSGFQVF showed 3.53 (3 of 3 replicates; controls 5 of 9).
The variant EGDVLRYYYAN / GKTNRPS / SSRDSSGFVVF showed nd (0 of 3 replicates; controls 2 of 9).
The variant EGDILRYYYAI / GGNNRPS / SSRDSSGFQVF showed 3.40 (1 of 3 replicates; controls 1 of 9).
The variant EGDGLRYYYAN / GKNNRPS / SSRDSSTFQVL showed 3.91 (1 of 3 replicates; controls 2 of 9).
The variant EGDTLRYYYAN / GKNNIPS / SSRDSSGMQVF showed 3.13 (1 of 3 replicates; controls 4 of 9).
The variant EWDFLRYYYAN / GKNNRPS / SSRDSSCFQVF showed 3.14 (1 of 3 replicates; controls 2 of 9).
The variant EGDHLRYYYAN / GKNNRPS / SSRTSSGFMVF showed 3.29 (3 of 3 replicates; controls 3 of 9).
The variant EGDILRYYYAN / GKNNRLS / SSRDSSGFQVF showed nd (0 of 3 replicates; controls 1 of 9).
The variant EGTCLRYYYAN / GKNNRDS / SSRDSSGFQVF showed 3.64 (1 of 3 replicates; controls 2 of 9).
The variant EGDLLRYYYAN / GPNNRAS / SSRDSSGFQVF showed 4.52 (2 of 3 replicates; controls 0 of 9).
The variant EGDHLRYYYAN / GKNNRPS / FSRDSPGFQVF showed 5.89 (1 of 3 replicates; controls 3 of 9).
The variant EGDQSRYYYAN / GKNNRPS / SSSDSSGFQVF showed 4.25 (2 of 3 replicates; controls 2 of 9).
The variant EGDFLRYYYAN / GKFNRPS / SSRDRSGFQVF showed 4.17 (1 of 3 replicates; controls 2 of 9).
The variant EGDCLRYYYAN / GKNNRPS / NSKDSSGFQVF showed nd (0 of 3 replicates; controls 2 of 9).
The variant EGDMLRYYYAN / GKNNRPS / GSRHSSGFQVF showed 4.43 (2 of 3 replicates; controls 4 of 9).
The variant EGDCLRYEYAN / GKLNRPS / SSRDSSGFQVF showed 3.19 (2 of 3 replicates; controls 2 of 9).
The variant EGDYLRYNYAN / GKNNRPS / SSRDSSGIQVF showed 1.74 (3 of 3 replicates; controls 2 of 9).
The variant EGDALRYTYAN / GKNNRPS / SSRDSSGFQDF showed 1.84 (3 of 3 replicates; controls 4 of 9).
The variant EGDPLRYYYAN / GANNRPS / RSRDSSGFQVF showed 3.33 (3 of 3 replicates; controls 3 of 9).
The variant EEDKDRYYYAN / GKNNRPS / SSRDSSGFQVF showed 2.98 (2 of 3 replicates; controls 4 of 9).
The variant EGDGLRYYYAN / SKNNRPS / SSRDSSGRQVF showed 2.59 (3 of 3 replicates; controls 2 of 9).
The variant EGDQERYYYAN / GKNNRPS / SSRDSSPFQVF showed 5.86 (1 of 3 replicates; controls 1 of 9).
The variant EGDILRAYYAN / GKNNRPS / QSRDSSGFQVF showed 1.74 (3 of 3 replicates; controls 6 of 9).
The variant EGDILRYYYAN / GKNPRDS / SSRDSSGFQVF showed 3.79 (3 of 3 replicates; controls 1 of 9).
The variant EGDLLRYYYAL / GKNNRFS / SSRDSSGFQVF showed nd (0 of 3 replicates; controls 1 of 9).
The variant EGDELRYYYAN / GKNNRPS / SSLDSHGFQVF showed 4.16 (1 of 3 replicates; controls 2 of 9).
The variant EGDYLRYYYAN / GMNARPS / SSRDSSGFQVF showed 4.25 (3 of 3 replicates; controls 1 of 9).

Excerpt, the first 5 entries:

{"CDR-L1": "EGDLLRYYYAN", "CDR-L2": "GKNNRPS", "CDR-L3": "SSRDSSGFQDF", "log10 Kd (nM), mean": "3.27", "replicates with signal": "2 of 3", "empty controls": "5 of 9"}
{"CDR-L1": "EGDTLRYYEAN", "CDR-L2": "GKNNLPS", "CDR-L3": "SSRDSSGFQVF", "log10 Kd (nM), mean": "2.92", "replicates with signal": "3 of 3", "empty controls": "4 of 9"}
{"CDR-L1": "EGDLLRYHYAN", "CDR-L2": "GKNNRPS", "CDR-L3": "ISRDSSGFQVF", "log10 Kd (nM), mean": "3.79", "replicates with signal": "1 of 3", "empty controls": "2 of 9"}
{"CDR-L1": "EGHMLRYYEAN", "CDR-L2": "GKNNRPS", "CDR-L3": "SSRDSSGFQVF", "log10 Kd (nM), mean": "2.93", "replicates with signal": "3 of 3", "empty controls": "3 of 9"}
{"CDR-L1": "EGDDLAYSYAN", "CDR-L2": "GKNNRPS", "CDR-L3": "SSRDSSGFQVF", "log10 Kd (nM), mean": "1.02", "replicates with signal": "3 of 3", "empty controls": "1 of 9"}